By UniProt entry, the sequences of proteins in these tests, tags left out. Residues count along the entry.
UniProt P00797, 67-406 limits assumed: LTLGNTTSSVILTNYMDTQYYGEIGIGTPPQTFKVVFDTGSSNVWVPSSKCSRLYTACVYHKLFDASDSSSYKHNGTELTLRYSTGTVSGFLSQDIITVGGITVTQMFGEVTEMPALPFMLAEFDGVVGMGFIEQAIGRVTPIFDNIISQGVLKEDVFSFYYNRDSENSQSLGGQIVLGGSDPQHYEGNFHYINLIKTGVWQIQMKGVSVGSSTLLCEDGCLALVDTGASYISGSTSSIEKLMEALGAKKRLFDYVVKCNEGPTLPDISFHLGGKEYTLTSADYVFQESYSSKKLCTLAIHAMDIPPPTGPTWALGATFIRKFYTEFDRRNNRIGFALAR

In patent US8487108B2, “Piperidinyl carbamate intermediates for the synthesis of aspartic protease inhibitors” (Vitae Pharmaceuticals, Inc., priority 2005, dated 2013):

Molecular target: trypsin-activated recombinant human renin (Homo sapiens, UniProt P00797)
Experiment: Renin fluorescence assay (internally quenched peptide substrate)
Assay type: biochemical
Details: compounds I*
Experimental: The sequence of this peptide corresponds to the sequence of human angiotensinogen. The following test protocol can be used. All reactions are carried out in a flat bottom white opaque microtiter plate. A 4 μL aliquot of 400 μM renin substrate (DABCYL-γ-[…]) in 192 μL assay buffer (50 mM BES, 150 mM NaCl, 0.25 mg/mL bovine serum albumin, pH7.0) is added to 4 μL of test compound in DMSO at various concentrations ranging from 10 μM to 1 nM final concentrations. Next, 100 μL of trypsin-activated recombinant human renin (final enzyme concentration of 0.2-2 nM) in assay buffer is added, and the solution is mixed by pipetting. The increase in fluorescence at 495 nm (excitation at 340 nm) is measured for 60-360 minutes at rt using a Perkin-Elmer Fusion microplate reader. The slope of a linear portion of the plot of fluorescence-increase as a function of time is then determined, and the rate is used for calculating percent inhibition in relation to uninhibited control. […] The IC50 is defined as the concentration of a particular inhibitor that reduces the formation of product by 50% relative to a control sample containing no inhibitor. […] (Wang G. T. et al. Anal. Biochem. 1993, 210, 351; Nakamura, N. et al. J. Biochem. (Tokyo) 1991, 109, 741; Murakami, K. et al. Anal Biochem. 1981, 110, 232).

CNC[C@H](CC1CCCCC1)NC(=O)N1CCC[C@@H]([C@@H](OCCNC(=NC#N)NC)c2cccc(Cl)c2)C1
IC50: > 50 nM

CNC[C@H](CC1CCCCC1)NC(=O)N1CCO[C@@H]([C@@H](OCCNC(=O)OC)c2cccc(Cl)c2)C1
IC50: < 10 nM
